Measurements from PubChem BioAssay (NCI).
This is a selection; strong and weak results do not stand in their true shares. Some structures show a salt or complex split into parts, the way the source records it. The source made the active and inactive calls. No stated cut-off is given here; in the data, active means growth inhibition above about 70%; inactive means the rest.

Legend:
[1] = NCI Yeast Anticancer Drug Screen. Data for the rad50 strain (AID 155);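 further: 0% = growth of vehicle-only cultures of the same strain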; conditions: S. cerevisiae rad50 strain growth inhibition; at 50.0 µM; stronger effect = higher value
[2] = NCI Yeast Anticancer Drug Screen. Data for the mec2-1 strain (AID 157); conditions: S. cerevisiae mec2-1 strain, at 50.0 µM, stronger effect = higher value
[3] = NCI Yeast Anticancer Drug Screen. Data for the sgs1 mgt1 strain (AID 161);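 further: 0% = growth of cultures given vehicle only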; conditions: S. cerevisiae sgs1 mgt1 strain, at 50.0 µM, stronger effect = higher value
[4] = NCI Yeast Anticancer Drug Screen. Data for the cln2 rad14 strain (AID 165);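 further: 0% = growth equal to vehicle treated cultures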; conditions: S. cerevisiae cln2 rad14 strain, at 50.0 µM, stronger effect = higher value
[5] = NCI Yeast Anticancer Drug Screen. Data for the bub3 strain (AID 167); conditions: S. cerevisiae bub3 mutant strain, at 50.0 µM, stronger effect = higher value
[6] = NCI Yeast Anticancer Drug Screen. Data for the mlh1 rad18 strain (AID 175); conditions: S. cerevisiae mlh1 rad18 strain growth inhibition; at 50.0 µM; stronger effect = higher value

Compound	growth inhibition [1]	growth inhibition [2]	growth inhibition [3]	growth inhibition [4]	growth inhibition [5]	growth inhibition [6]
COC(=O)C(O)(c1ccccc1)c1ccccc1	inactive: -0.45%	inactive: -6.65%	inactive: -10.1%	inactive: -19.8%	inactive: 11.9%	inactive: -6.5%
N#C/C(=C\c1ccccc1Cc1ccccn1)c1ccccc1.O=[N+]([O-])c1cc([N+](=O)[O-])c(O)c([N+](=O)[O-])c1	inactive: 44.2%	inactive: 10.4%	inactive: 57.5%	inactive: -2.55%	inactive: 20.9%	inactive: 22.1%
COc1ccc2ccccc2n1.O=[N+]([O-])c1cc([N+](=O)[O-])c(O)c([N+](=O)[O-])c1	inactive: 59.8%	inactive: 10.3%	inactive: 41.8%	inactive: 10.2%	inactive: 5.1%	inactive: 38.6%
O=[N+]([O-])c1cc([N+](=O)[O-])c(O)c([N+](=O)[O-])c1.OCCc1ccncc1	inactive: 13.2%	inactive: 0.7%	inactive: 8.45%	inactive: -7.45%	inactive: 17.9%	inactive: 5.35%
O=[N+]([O-])c1cc([N+](=O)[O-])c(O)c([N+](=O)[O-])c1.Oc1cccnc1I	inactive: 61.1%	inactive: 11.4%	inactive: 57.6%	inactive: -21.6%	inactive: 7.75%	inactive: 48.2%
O=[N+]([O-])c1cc([N+](=O)[O-])c(O)c([N+](=O)[O-])c1.OCCCN=C1CCCCC1	inactive: 49.1%	inactive: 9.05%	inactive: 36.5%	inactive: -20.6%	inactive: 0.05%	inactive: 29.4%
O=[N+]([O-])c1cccc([N+](=O)[O-])c1	inactive: -15.2%	inactive: 2.6%	inactive: -7%	inactive: -46.4%	inactive: -1.25%	inactive: 6.5%
[N-]=[N+]=NCc1cn[nH]n1	inactive: -10.7%	inactive: -7.05%	inactive: 11.4%	inactive: -9.1%	inactive: -5.15%	inactive: 10.7%
COc1ccc([N+](=O)[O-])cc1[N+](=O)[O-]	inactive: -21.6%	inactive: -5.3%	inactive: 0.35%	inactive: -36.2%	inactive: -3.65%	inactive: 15.2%
COc1cnc2ccccc2n1.O=[N+]([O-])c1cc([N+](=O)[O-])c(O)c([N+](=O)[O-])c1	inactive: 50.4%	inactive: 9.1%	inactive: 36.6%	inactive: -3.45%	inactive: 2.6%	inactive: 10%
C[N+]1(Cc2ccccc2C[N+]2(C)CCCCCC2)CCCCCC1.O=[N+]([O-])c1cc([N+](=O)[O-])c([O-])c([N+](=O)[O-])c1	inactive: 0.8%	inactive: -2.85%	inactive: -2.15%	inactive: -23.6%	inactive: -17.8%	inactive: -7.45%
O=[N+]([O-])C12C3C4C1C1CC4C4([N+](=O)[O-])C3CC2C14[N+](=O)[O-] (stereo not given)	inactive: -24.7%	inactive: -18.6%	inactive: -16.1%	inactive: 5.05%	inactive: -21.3%	inactive: -22.1%
CC1CCCCN2CCCC12.O=[N+]([O-])c1cc([N+](=O)[O-])c(O)c([N+](=O)[O-])c1	inactive: 32%	inactive: 4.5%	inactive: 31.5%	inactive: 18.6%	inactive: -2.15%	inactive: 7.9%
CCOC(=O)C1CCCN1CCCC#N.O=[N+]([O-])c1cc([N+](=O)[O-])c(O)c([N+](=O)[O-])c1	inactive: 36.6%	inactive: 16.9%	inactive: 34.9%	inactive: 21.2%	inactive: 1.6%	inactive: 25.4%
O=C1OCCN1[N+](=O)[O-]	inactive: 2.6%	inactive: 12.8%	inactive: 9.35%	inactive: 32.8%	inactive: 23.2%	inactive: 26.1%
CCCc1c(CC)c(=O)[nH]c2ccccc12	inactive: 29.6%	inactive: 13.8%	inactive: 40.1%	inactive: 25.2%	inactive: 8.5%	inactive: 39.1%
COC(=O)C(OC(C)=O)C1OC(n2cnc3c(N)ncnc32)C(OC(C)=O)C1OC(C)=O.O=[N+]([O-])c1cc([N+](=O)[O-])c(O)c([N+](=O)[O-])c1 (stereo not given)	inactive: 30.8%	inactive: 11.3%	inactive: 27.5%	inactive: 5.9%	inactive: -0.25%	inactive: 40.5%
CN([PH+](F)F)[PH+](F)F.CN([PH+](F)F)[PH+](F)F.CN([PH+](F)F)[PH+](F)F.CO[PH+](OC)OC.CO[PH+](OC)OC.[Ni].[Ni]	inactive: 4.7%	inactive: -9.9%	inactive: -7.9%	inactive: 0.75%	inactive: 16.1%	inactive: 3.2%

Compound	growth inhibition [1]	growth inhibition [2]	growth inhibition [3]	growth inhibition [4]	growth inhibition [5]	growth inhibition [6]
O=[N+]([O-])c1cc([N+](=O)[O-])c(O)c([N+](=O)[O-])c1.c1ccc(C2CNCCN2)cc1	inactive: 32.4%	inactive: 23.1%	inactive: 33.5%	inactive: 11.8%	inactive: 1.6%	inactive: 35%
COP(C)(=O)O.[Ce]	inactive: -1.45%	inactive: -12.6%	inactive: 11.7%	inactive: -30.9%	inactive: -3.35%	inactive: 14.8%
Cc1cc2c(cn1)CNC2=O.O=[N+]([O-])c1cc([N+](=O)[O-])c(O)c([N+](=O)[O-])c1	inactive: 38.5%	inactive: -1.35%	inactive: 22.7%	inactive: -24.9%	inactive: -0.65%	inactive: 21.1%
CCCCNCCO.O=[N+]([O-])c1cc([N+](=O)[O-])c(O)c([N+](=O)[O-])c1	inactive: -2.2%	inactive: 7.65%	inactive: -8%	inactive: -39.5%	inactive: -10.7%	inactive: 5.85%
CCN(CC)CCOC(=O)C(O)(c1ccccc1)c1ccc(OC)cc1 (stereo not given)	inactive: 30.1%	inactive: 22.4%	inactive: 39.1%	inactive: 1.65%	inactive: 0.65%	inactive: 27.7%
CCOP(=O)(O)CC.[Ti]	inactive: -9.55%	inactive: -16.1%	inactive: -8.45%	inactive: -39.5%	inactive: -8.55%	inactive: -15.2%
F[PH+](F)N(c1ccccc1)[PH+](F)F.F[PH+](F)N(c1ccccc1)[PH+](F)F.F[PH+](F)N(c1ccccc1)[PH+](F)F.[Cr]	inactive: 30.9%	inactive: 14.2%	inactive: -5.25%	inactive: 13.2%	inactive: -9.8%	inactive: 19.2%
O=P(Cl)(CCl)NC12CC3CC(CC(C3)C1)C2 (stereo not given)	inactive: -4.85%	inactive: -3%	inactive: -4.25%	inactive: -1.65%	inactive: -2.65%	inactive: 16.7%
Cc1cc(N(CCCl)CCCl)ccc1C1OCCO1.[C-]#[O+].[C-]#[O+].[C-]#[O+].[Cr]	inactive: -14.5%	inactive: 20.1%	inactive: 17%	inactive: 27.6%	inactive: 8.6%	inactive: 37%
CCCCCCCCCCOP(=O)(Cl)CC (stereo not given)	inactive: -8%	inactive: -3.95%	inactive: -2.65%	inactive: -5.85%	inactive: 3.9%	inactive: -19.1%
CC(C)OP(C)(=O)O.[Tb]	inactive: -5.05%	inactive: -2.45%	inactive: 6.3%	inactive: -46.6%	inactive: -7%	inactive: -8.1%
NCCCO.O=[N+]([O-])c1cc([N+](=O)[O-])c(O)c([N+](=O)[O-])c1	inactive: 12.5%	inactive: 4.9%	inactive: 13.9%	inactive: -40.6%	inactive: -5.7%	inactive: 0.05%
CN1CCC2(CC1)NC1CCN(C)CC1S2 (stereo not given)	inactive: 29%	inactive: -1%	inactive: 2.7%	inactive: -1.15%	inactive: -0.6%	inactive: 37.1%
CCC(C)NCC(C)O.O=[N+]([O-])c1cc([N+](=O)[O-])c(O)c([N+](=O)[O-])c1	inactive: 0.9%	inactive: 5.05%	inactive: -10.6%	inactive: -43.2%	inactive: -18.4%	inactive: 3.9%
O=[N+]([O-])c1cc([N+](=O)[O-])c(C(F)(F)F)c([N+](=O)[O-])c1O	inactive: -9.25%	inactive: -3%	inactive: 24.8%	inactive: -4.25%	inactive: -8.9%	inactive: 9.85%
NCc1ccncc1.O=[N+]([O-])c1cc([N+](=O)[O-])c(O)c([N+](=O)[O-])c1	inactive: 9.1%	inactive: 4.3%	inactive: 5.45%	inactive: -4.8%	inactive: 36.5%	inactive: 22.4%
Cc1ccc2ccc3ccc(C)c(C)c3c2c1C.O=[N+]([O-])c1cc([N+](=O)[O-])cc([N+](=O)[O-])c1	active: 98.3%	active: 98.6%	active: 99.2%	active: 96.3%	active: 98.5%	active: 98.5%
